Key:
CYP3A4/5 = experiment: Multi-concentration inhibitory activity curve of CYP3A4/5 enzymes; type: in vitro ADME; conditions: pH 7.4, probe midazolam; human liver microsomes; substrate midazolam
Experimental: The buffer was filtered through a 0.45 μm filter.
Liver microsome working solution (final system concentration of 0.5 mg/mL) was prepared. […] The above stock solution was diluted with acetonitrile (4-fold dilution, 6 non-zero concentrations).
The half-maximal inhibitory concentration (IC50) was calculated using Graph Pad Prism.

By UniProt entry, the sequences of proteins in these tests, tags left out. Where a name states a change or a piece, a line headed by the entry shows the natural chain unless it says otherwise.
UniProt Q12809: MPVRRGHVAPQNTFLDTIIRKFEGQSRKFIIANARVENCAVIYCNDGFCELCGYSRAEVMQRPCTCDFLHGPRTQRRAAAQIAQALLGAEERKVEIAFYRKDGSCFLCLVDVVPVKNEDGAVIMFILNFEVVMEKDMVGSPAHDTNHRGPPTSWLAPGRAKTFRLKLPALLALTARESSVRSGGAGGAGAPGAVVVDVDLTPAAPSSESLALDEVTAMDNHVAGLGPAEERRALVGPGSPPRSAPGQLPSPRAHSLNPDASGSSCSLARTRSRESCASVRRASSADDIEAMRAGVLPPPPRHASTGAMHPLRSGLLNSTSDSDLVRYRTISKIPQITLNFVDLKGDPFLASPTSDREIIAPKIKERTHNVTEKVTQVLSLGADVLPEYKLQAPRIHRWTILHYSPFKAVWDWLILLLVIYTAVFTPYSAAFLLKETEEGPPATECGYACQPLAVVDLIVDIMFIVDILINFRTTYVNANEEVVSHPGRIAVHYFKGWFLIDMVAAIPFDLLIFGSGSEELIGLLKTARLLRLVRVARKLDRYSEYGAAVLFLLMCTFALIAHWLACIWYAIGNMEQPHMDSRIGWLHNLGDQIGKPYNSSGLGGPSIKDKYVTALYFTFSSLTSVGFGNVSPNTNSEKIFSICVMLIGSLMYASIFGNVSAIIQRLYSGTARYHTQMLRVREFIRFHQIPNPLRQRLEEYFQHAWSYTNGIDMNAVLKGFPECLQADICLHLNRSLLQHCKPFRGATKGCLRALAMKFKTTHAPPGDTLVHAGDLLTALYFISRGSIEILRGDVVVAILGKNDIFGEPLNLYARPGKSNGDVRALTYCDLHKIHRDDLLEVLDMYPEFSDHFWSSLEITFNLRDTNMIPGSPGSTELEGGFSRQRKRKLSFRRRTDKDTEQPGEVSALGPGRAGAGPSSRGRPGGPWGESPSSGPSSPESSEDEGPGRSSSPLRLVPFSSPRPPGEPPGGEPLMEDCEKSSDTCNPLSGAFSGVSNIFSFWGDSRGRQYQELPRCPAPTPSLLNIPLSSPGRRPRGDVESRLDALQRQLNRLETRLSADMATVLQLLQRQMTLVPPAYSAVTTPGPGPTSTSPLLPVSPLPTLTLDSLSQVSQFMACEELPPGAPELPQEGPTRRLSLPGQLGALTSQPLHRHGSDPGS

[1] = molecular target: voltage-gated potassium channel hERG (Homo sapiens (Human), UniProt Q12809); experiment: hERG potassium channel inhibitory activity test (manual patch clamp, HEK293)

Work on `COc1cc(S(C)(=O)=O)ccc1NCC#Cc1nc2c(N[C@@H]3CCN(C)C[C@@H]3F)cccn2c1CC(F)(F)F` [Cpd-B, reference compound] yielded an IC50 at 10 min (CYP3A4/5) of 5.8 µM and an IC50 [1] of 5.5 µM.
Work on `CNC(=O)c1ccc(NCC#Cc2cc3c(N[C@@H]4CCN(C)C[C@@H]4F)cccn3c2CC(F)(F)F)c(OC)c1` [Cpd-C, 4-((3-(8-(((3S,4R)-3-Fluoro-1-methylpiperidin-4-yl)amino)-3-(2,2,2-trifluoroethyl)indolizin-2-yl)prop-2-yn-1-yl)amino)-3-methoxy-N-methylbenzamide, reference compound] yielded an IC50 [1] of 1.4 µM.
